# AlphaSeq binding of Ab-95 light chain variants to a spike HR2 peptide

Data: MIT Lincoln Laboratory AlphaSeq set, Engelhart et al. 2022, doi:10.1038/s41597-022-01779-4, as distributed in FLAb.

Antigen: PDVDLGDISGINAS, a 14-residue peptide of the SARS-CoV-2 spike HR2 region.

Parent: Ab-95, a human scFv built as VH, three GGGGS repeats, VL. Only the CDRs of the light chain vary.
VH: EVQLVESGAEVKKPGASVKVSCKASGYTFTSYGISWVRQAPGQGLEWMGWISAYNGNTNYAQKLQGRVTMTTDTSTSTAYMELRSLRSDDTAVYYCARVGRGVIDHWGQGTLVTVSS
VL: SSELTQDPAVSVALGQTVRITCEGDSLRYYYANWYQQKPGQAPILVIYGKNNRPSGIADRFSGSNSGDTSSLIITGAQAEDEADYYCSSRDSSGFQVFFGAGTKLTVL

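The starting antibody came from a phage panning campaign against this peptide. Library AAYL52 holds single substitutions and randomly drawn double and triple substitutions in the CDRs. The assay is AlphaSeq: two haploid yeast populations carry antibody and antigen on their surface. Binding brings cells together so that they mate, and sequencing counts the barcode pairs among the diploids. The ratio of observed to expected reads was calibrated, replicate by replicate, on BCL2-family standards whose Kd was known from biolayer interferometry. Each pool was mated in three replicate cultures.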

The parent's light chain CDRs are EGDSLRYYYAN, GKNNRPS, SSRDSSGFQVF; each variant's own CDRs replace them letter for letter.
Affinities are written as log10 Kd with Kd in nM; a lower number is a better binder.
A mean of the replicates is given; it leaves out those without a signal.
"ND" marks a missing value. The strain was present, yet no cells mated with the target were sequenced in that replicate, which points to weak or no binding.

CDR-L1,CDR-L2,CDR-L3,log10 Kd (nM) by replicate,mean log10 Kd (nM),control signals
EGDLLRYYDAN,GKNNRPS,SSQDSSGFQVF,3.09 2.75 3.95,3.26,5/9 (4.44)
EWDNLRYYYAN,AKNNRPS,SSRDSSGFQVF,2.73 5.19 4.03,3.98,2/9 (3.56)
EGDSLRFYYAN,GKNNNPS,SSRDSSGFQVF,ND ND 3.49,3.49,1/9 (3.59)
EGDSLRYYYAN,GKNNRIS,SSRDWSGFQVF,4.03 3.49 ND,3.76,1/9 (3.59)
EGDSLRYYMAN,GKNNRPS,SSRDVSGFQVG,1.97 2.07 1.25,1.76,1/9 (3.84)
EGDSLWRYYAN,GKNNRPS,SSRDSSGIQVF,2.98 3.12 2.36,2.82,2/9 (3.68)
EGDPLRYCYAN,AKNNRPS,SSRDSSGFQVF,4.13 3.64 2.83,3.53,4/9 (3.77)
EGDSLRYYYAN,GINNRPS,SSLDSSGFQHF,4.00 5.12 3.03,4.05,2/9 (3.81)
EGESLRTYYAN,GKVNRPS,SSRDSSGFQVF,5.18 3.31 3.88,4.13,0/9
EGDSLRYYYSH,GKNNRPS,SARDSSGFQVF,2.85 ND ND,2.85,4/9 (3.35)
EGDSLRYWYAN,GKNNRPS,SSRDPSGFQVC,ND ND 3.91,3.91,1/9 (4.71)
EGDSLRYYHQN,GKNNRPS,SSRDWSGFQVF,ND ND 4.25,4.25,2/9 (3.68)
EGMSLRYYYAN,GKNRRPS,SKRDSSGFQVF,ND ND ND,ND,0/9
EGDSLHYYYAN,YKNNRPS,SSHDSSGFQVF,4.70 ND ND,4.70,3/9 (2.83)
NGDSLRYGYAN,GKNNRPS,TSRDSSGFQVF,1.75 1.41 0.96,1.37,5/9 (3.67)
EGDSYDYYYAN,GKNCRPS,SSRDSSGFQVF,ND 3.71 3.35,3.53,4/9 (4.44)
EGDNLRYYYAN,GKNRRPS,SSRDSAGFQVF,3.81 3.94 ND,3.88,1/9 (3.78)
EGDALPYYYAN,AKNNRPS,SSRDSSGFQVF,3.43 ND ND,3.43,2/9 (3.88)
EGDSLRYYYAN,GKNNEPS,SSRDSSQFQVF,ND ND ND,ND,0/9
EGDSSRYYYAN,GKNNRPS,SSRDSSGMQNF,ND 3.90 ND,3.90,4/9 (3.65)
EYDSLRYYYAN,GKNNRPS,ESRDSSGAQVF,2.53 2.67 3.74,2.98,3/9 (4.67)
EGDSHRYYYAN,GKNNRPS,SSRDSSGFQVV,ND ND 2.62,2.62,0/9
EHTQLRYYYAN,GKNNRPS,SSRDSSGFQVF,2.81 2.62 1.81,2.41,3/9 (3.63)
EADSLRYYYAN,GKNNRPS,SSTDSSGDQVF,ND 2.91 3.25,3.08,0/9
NGDSWRYYYPN,GKNNRPS,SSRDSSGFQVF,2.94 2.99 3.16,3.03,5/9 (4.29)
EGDSLRYYYYN,GKNNRPS,SSRDSSGFQVN,4.51 ND 4.28,4.39,3/9 (3.65)
ETDSLRYYYAN,GKNNRPH,SSRDKSGFQVF,3.19 2.67 3.61,3.16,2/9 (4.42)
EGVPLRYYYAW,GKNNRPS,SSRDSSGFQVF,4.06 4.18 ND,4.12,5/9 (3.98)
EGDSLRYYMAN,GKNNRPS,SSRDSSYCQVF,2.60 2.24 2.21,2.35,2/9 (2.85)
EGDSTRYYYAN,GKNAIPS,SSRDSSGFQVF,ND ND ND,ND,3/9 (3.87)
EGRSLRYYYAN,GKNNRYS,SSRDSSGSQVF,2.55 2.44 2.62,2.54,3/9 (3.58)
EGDSLRYYYAN,GCVNRPS,SSADSSGFQVF,5.41 3.27 3.86,4.18,7/9 (4.08)
EGDSLRYGWAN,GLNNRPS,SSRDSSGFQVF,1.61 1.52 1.02,1.39,3/9 (4.39)
EGDSLRYYYAA,GKNNRPS,SFRDSSTFQVF,4.00 ND ND,4.00,1/9 (2.61)
EGDKLRVYYAN,GKANRPS,SSRDSSGFQVF,ND 4.52 4.44,4.48,3/9 (4.00)
EGDSFRYYYAN,GKNNRPS,SSRTSSGFQVF,3.97 3.29 2.67,3.31,5/9 (3.90)

Parent in this assay: reference entry 2.31, copy in this library 2.25.
As a blank, each scFv also met three strains without target: over library AAYL52, 28% of these pairings were detected, typically at 3.91 and seldom below 2.90. For each scFv, signals with the empty controls are counted beside the result, with their mean in brackets.